# Values of other authors, collected in the PKSmart pharmacokinetics tables (Seal et al. 2025).
# Legend:
# [1] = Lombardo et al. 2013, J Clin Pharmacol 53:178, doi 10.1177/0091270012440282; conditions: for fraction unbound: plasma; for Vd / clearance: in vivo, iv
# [2] = Lombardo, Berellini, Obach 2018, Drug Metab Dispos 46:1466, doi 10.1124/dmd.118.082966; conditions: human; for fraction unbound: plasma; for clearance / half-life / MRT / Vd: in vivo, iv
# [3] = not given per row; by the article one of three: Lombardo et al. 2013, J Clin Pharmacol 53:178, doi 10.1177/0091270012440282; 'New Drugs at FDA', novel drug approvals for 2021 and 2022 (the article's reference 43); Yap, Li, Chen 2006, J Mol Graph Model 24:383, doi 10.1016; conditions: human; in vivo
smiles,measurement,setting,value
CCN(CC)CCNC(=O)c1ccc(NS(C)(=O)=O)cc1,fraction unbound,[1]; dog,0.95
same,fraction unbound,[1]; rat,0.91
Cc1cn([C@H]2C[C@H](N=[N+]=[N-])[C@@H](CO)O2)c(=O)[nH]c1=O,Vd,[1]; rat,0.86 L/kg
same,clearance,[1]; rat,25.1 mL/min/kg
same,fraction unbound,[1]; rat,0.687
Nc1nc(-n2cc(C(=O)O)c(=O)c3cc(F)c(N4CC(O)C4)c(Cl)c32)c(F)cc1F,fraction unbound,[2],0.16
O=c1c(O)c(-c2ccc(O)c(O)c2)oc2cc(O)cc(O)c12,fraction unbound,[1]; rat,0.02
CC(NC(=O)N(CCCl)N=O)C(N)=O (configuration not stated),Vd,[1]; dog,0.81 L/kg
same,Vd,[3],0.76 L/kg
same,clearance,[3],9 mL/min/kg
CNCC[C@@H](Oc1ccccc1C)c1ccccc1,Vd,[1]; dog,1.4 L/kg
same,clearance,[1]; dog,7.4 mL/min/kg
O=C(CCCCCCC(O)=NO)Nc1ccccc1,clearance,[2],28 mL/min/kg
same,half-life,[2],0.76 h
same,fraction unbound,[2],0.29
same,Vd,[1]; dog,0.6 L/kg
same,clearance,[1]; dog,54.7 mL/min/kg
same,fraction unbound,[1]; rat,0.61
Nc1nc2[nH]cc(CCc3ccc(C(=O)NC(CCC(=O)O)C(=O)O)cc3)c2c(=O)[nH]1 (configuration not stated),fraction unbound,[2],0.19
CC(C)NCC(O)COc1cccc2[nH]ccc12 (configuration not stated),fraction unbound,[1]; rat,0.57
CN(C)c1ccc(O)c2c1C[C@@H]1C[C@@H]3[C@@H](N(C)C)C(O)=C(C(N)=O)C(=O)[C@@]3(O)C(O)=C1C2=O,clearance,[3],0.89 mL/min/kg
CC1(C)S[C@@H]2C(NC(=O)C(C(=O)O)c3ccccc3)C(=O)N2C1C(=O)O (some centres not stated),fraction unbound,[2],0.52
NC(=O)c1ncn([C@@H]2O[C@H](CO)[C@@H](O)[C@H]2O)n1,fraction unbound,[1]; rat,0.95
OC(CCN1CCCCC1)(c1ccccc1)C1CC2C=CC1C2 (configuration not stated),MRT,[2],17 h
same,Vd,[2],12 L/kg
same,half-life,[2],24 h
same,Vd,[1]; rat,12 L/kg
same,clearance,[1]; rat,68 mL/min/kg
Nc1ncn([C@H]2C[C@H](O)[C@@H](CO)O2)c(=O)n1,fraction unbound,[1]; dog,1
same,fraction unbound,[1]; rat,1
CC(C)(C)NC(=O)C1CC[C@H]2[C@@H]3CC[C@H]4NC(=O)C=C[C@]4(C)[C@H]3CC[C@]12C (some centres not stated),Vd,[1]; dog,0.36 L/kg
same,clearance,[1]; dog,2.1 mL/min/kg
Cn1nnc2c(C(N)=O)ncn2c1=O,MRT,[2],2.3 h
same,clearance,[2],3.6 mL/min/kg
CC[C@H]1OC(=O)C(C)[C@@H](O[C@H]2C[C@@](C)(OC)[C@@H](O)[C@H](C)O2)[C@H](C)[C@@H](O[C@@H]2O[C@H](C)C[C@H](N(C)C)[C@H]2O)[C@](C)(O)CC(C)C(=O)C(C)[C@@H](O)[C@]1(C)O (some centres not stated),half-life,[2],2 h
Cc1ccc(C(=O)N(CCCN)C(c2nc3snc(C)c3c(=O)n2Cc2ccccc2)C(C)C)cc1 (configuration not stated),MRT,[2],19 h
same,Vd,[2],6.74 L/kg
same,clearance,[2],5.83 mL/min/kg
same,half-life,[2],16.3 h
Nc1nc(Cl)nc2c1ncn2[C@H]1C[C@H](O)[C@@H](CO)O1,Vd,[1]; rat,4.5 L/kg
same,clearance,[1]; rat,25.3 mL/min/kg
Cn1c(=O)c2[nH]cnc2n(C)c1=O,clearance,[3],0.73 mL/min/kg
Nc1ncn([C@@H]2O[C@H](CO)[C@@H](O)[C@H]2O)c(=O)n1,MRT,[2],0.22 h
same,Vd,[2],0.47 L/kg
same,clearance,[2],35 mL/min/kg
same,half-life,[2],0.36 h
COc1ccc(CCO[C@@H]2CCCC[C@H]2N2CC[C@@H](O)C2)cc1OC,MRT,[2],3 h
same,Vd,[2],1.8 L/kg
same,clearance,[2],8.29 mL/min/kg
same,half-life,[2],3.13 h
NCCCNCCSP(=O)(O)O,MRT,[2],0.05 h
same,Vd,[2],0.09 L/kg
same,clearance,[2],30.6 mL/min/kg
same,half-life,[2],0.15 h
CC[C@@]1(O)C(=O)OCc2c1cc1n(c2=O)Cc2cc3c(CN(C)C)c(O)ccc3nc2-1,MRT,[2],2.3 h
same,half-life,[2],2.3 h
same,Vd,[1]; dog,1.7 L/kg
same,clearance,[1]; dog,17.6 mL/min/kg
same,Vd,[1]; monkey,7.38 L/kg
same,clearance,[1]; monkey,96.1 mL/min/kg
same,Vd,[1]; rat,3.08 L/kg
same,clearance,[1]; rat,34.4 mL/min/kg
C[C@@H](CN1CC(=O)NC(=O)C1)N1CC(=O)NC(=O)C1,fraction unbound,[1]; dog,0.94
OCCN(CCO)c1nc(N2CCCCC2)c2nc(N(CCO)CCO)nc(N3CCCCC3)c2n1,fraction unbound,[2],0.009
CC[C@]1(O)C(=O)OCc2c1cc1n(c2=O)Cc2cc3c(CN(C)C)c(O)ccc3nc2-1,clearance,[3],11.8 mL/min/kg
C[C@]12C[C@]3(O)O[C@@H](O1)[C@@]1(COC(=O)c4ccccc4)[C@@H]3C[C@]12O[C@@H]1O[C@H](CO)[C@@H](O)[C@H](O)[C@H]1O,MRT,[2],1.83 h
same,Vd,[2],0.22 L/kg
same,clearance,[2],2.05 mL/min/kg
same,half-life,[2],1.49 h
COC(=O)C1[C@@H](O)CC[C@H]2CN3CCc4c([nH]c5ccccc45)[C@@H]3C[C@@H]12 (some centres not stated),fraction unbound,[2],0.2
CN1CCc2cccc3c2[C@H]1Cc1ccc(O)c(O)c1-3,Vd,[1]; rat,2.7 L/kg
same,clearance,[1]; rat,196 mL/min/kg
N#Cc1ccc(C(c2ccc(C#N)cc2)n2cncn2)cc1,MRT,[2],59 h
same,half-life,[2],45 h
same,Vd,[1]; rat,2.02 L/kg
same,clearance,[1]; rat,0.66 mL/min/kg
CCN(CC)CCCC(C)Nc1c2ccc(Cl)cc2nc2ccc(OC)cc12 (configuration not stated),fraction unbound,[2],0.13
CCCc1nc(C)c2c(=O)[nH]c(-c3cc(S(=O)(=O)N4CCN(CC)CC4)ccc3OCC)nn12,MRT,[2],3.8 h
same,half-life,[2],4.5 h
CN(Cc1cnc2nc(N)nc(N)c2n1)c1ccc(C(=O)NC(CCC(=O)O)C(=O)O)cc1 (configuration not stated),Vd,[1]; dog,0.54 L/kg
same,clearance,[1]; dog,0.587 mL/min/kg
same,Vd,[1]; rat,0.16 L/kg
same,clearance,[1]; rat,10.5 mL/min/kg
CC(C)NCC(O)COc1ccc(COCCOC(C)C)cc1 (configuration not stated),fraction unbound,[1]; dog,0.72
COCCc1ccc(OCC(O)CNC(C)C)cc1 (configuration not stated),Vd,[1]; dog,3.1 L/kg
same,clearance,[1]; dog,32.8 mL/min/kg
O=P(O)(O)C(O)(Cc1cccnc1)P(=O)(O)O,clearance,[2],1.5 mL/min/kg
same,half-life,[2],200 h
Nc1ccn([C@H]2CC[C@@H](CO)O2)c(=O)n1,MRT,[2],1.6 h
same,Vd,[2],0.54 L/kg
same,clearance,[2],5.6 mL/min/kg
same,half-life,[2],1.2 h
O=C(c1ccccc1)c1ccc2n1CCC2C(=O)O (configuration not stated),MRT,[2],5.2 h
same,half-life,[2],5.1 h
CC(CN1c2ccccc2Sc2ccccc21)N(C)C (configuration not stated),MRT,[2],17 h
same,half-life,[2],14 h
COc1ccc([C@@H]2Sc3ccccc3N(CCN(C)C)C(=O)C2OC(C)=O)cc1 (some centres not stated),clearance,[2],13 mL/min/kg
same,half-life,[2],5.6 h
COC(=O)C1=C(C)NC(C)=C(C(=O)OCC(C)C)C1c1ccccc1[N+](=O)[O-] (configuration not stated),fraction unbound,[1]; rat,0.009
CC(C)NCC(O)c1ccc(NS(C)(=O)=O)cc1 (configuration not stated),MRT,[2],11 h
same,Vd,[2],1.3 L/kg
same,half-life,[2],6.3 h
same,clearance,[1]; dog,14.7 mL/min/kg
C[C@]12C=CC(=O)C=C1CC[C@@H]1[C@@H]2[C@@H](O)C[C@@]2(C)[C@H]1CC[C@]2(O)C(=O)CO,MRT,[2],4.8 h
same,Vd,[2],0.86 L/kg
same,clearance,[2],2.9 mL/min/kg
same,half-life,[2],3.4 h
C[N+]1(CC2CC2)CC[C@]23c4c5ccc([O-])c4OC2C(=O)CC[C@@]3(O)[C@H]1C5 (some centres not stated),Vd,[2],2.6 L/kg
same,clearance,[2],22 mL/min/kg
same,half-life,[2],2.5 h
NCCCCC(NC(CCc1ccccc1)C(=O)O)C(=O)N1CCCC1C(=O)O (configuration not stated),MRT,[2],12 h
same,Vd,[2],0.89 L/kg
same,half-life,[2],42 h
CC=CC1=C(C(=O)O)N2C(=O)C(NC(=O)C(N)c3ccc(O)cc3)[C@H]2SC1 (some centres not stated),fraction unbound,[2],0.59
C[C@@H](Oc1cc(-c2cnn(C3CCNCC3)c2)cnc1N)c1c(Cl)ccc(F)c1Cl,MRT,[2],37.9 h
same,Vd,[2],22.1 L/kg
same,clearance,[2],9.75 mL/min/kg
same,half-life,[2],38.9 h
S=c1[nH]cnc2nc[nH]c12,clearance,[3],11 mL/min/kg
S=c1[nH]cnc2[nH]cnc12,clearance,[2],15 mL/min/kg
same,fraction unbound,[2],0.85
O=c1[nH]cc(F)c(=O)[nH]1,MRT,[2],0.15 h
same,half-life,[2],0.12 h
COc1ccc2c3c1O[C@H]1[C@@H](O)C=C[C@H]4[C@@H](C2)N(C)CC[C@@]341,Vd,[1]; rat,5.1 L/kg
same,clearance,[1]; rat,103 mL/min/kg
CN(C)c1ccc(O)c2c1C[C@H]1C[C@H]3[C@H](N(C)C)C(O)=C(C(N)=O)C(=O)[C@@]3(O)C(O)=C1C2=O,MRT,[2],22 h
same,Vd,[2],1.6 L/kg
same,clearance,[2],1.2 mL/min/kg
same,half-life,[2],17 h
CNC1(c2ccccc2Cl)CCCCC1=O (configuration not stated),fraction unbound,[1]; rat,0.53
CN1C[C@@H]2c3ccccc3Oc3ccc(Cl)cc3[C@H]2C1,fraction unbound,[2],0.05
Nc1ccn([C@@H]2O[C@H](CO)[C@@H](O)[C@@H]2O)c(=O)n1,fraction unbound,[2],0.87
O=C(NCC1CCCCN1)c1cc(OCC(F)(F)F)ccc1OCC(F)(F)F (configuration not stated),fraction unbound,[1]; rat,0.41
CNC(=O)c1c(I)c(NC(C)=O)c(I)c(C(=O)O)c1I,fraction unbound,[2],0.98
CN[C@@H]1[C@@H](O)[C@@H](O[C@@H]2[C@@H](O)[C@H](O[C@H]3O[C@H]([C@@H](C)N)CC[C@H]3N)[C@@H](N)C[C@H]2N)OC[C@]1(C)O,MRT,[2],5.5 h
same,Vd,[2],0.33 L/kg
same,clearance,[2],1 mL/min/kg
same,half-life,[2],4.7 h
CC1COc2c(N3CCN(C)CC3)c(F)cc3c(=O)c(C(=O)O)cn1c23 (configuration not stated),fraction unbound,[1]; rat,0.64
CC(C)C[C@H](NC(=O)C(Cc1ccccc1)NC(=O)c1cnccn1)B(O)O (some centres not stated),MRT,[2],8.8 h
same,clearance,[2],19 mL/min/kg
same,half-life,[2],18 h
same,fraction unbound,[2],0.17
NC[C@H]1O[C@H](O[C@H]2[C@H](O)[C@@H](O[C@H]3O[C@H](CO)[C@@H](O)[C@H](N)[C@H]3O)[C@H](N)C[C@@H]2N)[C@H](O)[C@@H](O)[C@@H]1O,fraction unbound,[2],0.99
OC[C@@H]1O[C@@H](n2cnc3c2N=CNC[C@H]3O)C[C@H]1O,fraction unbound,[2],0.96
S=c1nc[nH]c2nc[nH]c12,Vd,[1]; monkey,0.9 L/kg
same,clearance,[1]; monkey,15.2 mL/min/kg
CCn1cc(C(=O)O)c(=O)c2cc(F)c(N3CCNCC3)nc21,fraction unbound,[1]; rat,0.65
CN1CCC[C@@H]1Cc1c[nH]c2ccc(CCS(=O)(=O)c3ccccc3)cc12,Vd,[2],1.6 L/kg
same,clearance,[2],5.3 mL/min/kg
same,half-life,[2],4.2 h
same,fraction unbound,[2],0.15
